The entries are a selection whose mix differs from that of the whole data set. Active and inactive are the calls of the source. Rule as the data show it: active = inhibition above about 40%; inactive = the rest.
Biological target: Coagulation factor XII (Homo sapiens) (UniProt P00748)
Test: coagulation factor XIIa activity inhibition – biochemical, 1536-well, primary screen (AID 800);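 also: 0% = enzyme with no compound and 100% = blank without enzyme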
Conditions: purified FXIIa, Boc-QGR-AMC fluorogenic substrate, 2 h; at 5 µM; stronger effect = higher value

Chains of the proteins cited; added tags and fusions are not shown. Residues count along the entry.
UniProt P00748, 20-372 limits assumed: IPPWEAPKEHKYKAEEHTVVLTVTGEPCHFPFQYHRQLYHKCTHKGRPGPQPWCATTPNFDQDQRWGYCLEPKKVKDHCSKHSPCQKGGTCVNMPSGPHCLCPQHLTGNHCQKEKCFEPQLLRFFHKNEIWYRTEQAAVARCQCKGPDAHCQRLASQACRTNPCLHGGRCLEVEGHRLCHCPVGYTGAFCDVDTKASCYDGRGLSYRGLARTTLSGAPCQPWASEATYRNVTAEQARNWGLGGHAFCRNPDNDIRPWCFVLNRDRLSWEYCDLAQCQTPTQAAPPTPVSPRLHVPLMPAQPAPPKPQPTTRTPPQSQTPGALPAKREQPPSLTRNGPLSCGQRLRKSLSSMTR
UniProt P00748, 373-615 limits assumed: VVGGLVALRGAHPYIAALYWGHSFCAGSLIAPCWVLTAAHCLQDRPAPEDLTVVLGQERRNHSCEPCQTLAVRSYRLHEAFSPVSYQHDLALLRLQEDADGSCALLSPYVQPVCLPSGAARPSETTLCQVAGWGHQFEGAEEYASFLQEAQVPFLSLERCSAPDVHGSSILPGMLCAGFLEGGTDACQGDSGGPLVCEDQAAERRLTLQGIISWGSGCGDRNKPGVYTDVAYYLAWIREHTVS

SMILES	inhibition
O=C(NCC1(N2CCCCC2)CCCCC1)c1cccc([N+](=O)[O-])c1	inactive: 5.49%
N#CC1(Nc2ccccc2)CCN(CCc2ccccc2)CC1	inactive: 21.4%
COc1ccc(NC2CCN(C(=O)OC(C)(C)C)CC2)cc1	inactive: 3.12%
CN1CCN(CCOC(=O)C(O)(c2ccccc2)c2ccccc2)CC1	inactive: 12.6%
O=C(NCC1(N2CCOCC2)CCCCC1)c1cc(=O)[nH]c2ccccc12	inactive: -0.33%
CN(C)c1cccc(C(=O)NCC2(N3CCCCC3)CCCCC2)c1	inactive: 1.03%
COc1ccc(CN(CCCl)CCCl)cc1Cl	inactive: 4.46%
CC(C)c1ccc(NC2CCN(C(=O)OC(C)(C)C)CC2)cc1	inactive: 2%
COc1ccc(C(=O)NCC2(N3CCCCC3)CCCCC2)c(OC)c1OC	inactive: -1.96%
CCOC(=O)N1CCC(Nc2ccc(OC)cc2)CC1	inactive: 7.75%
N#CC1(Nc2ccccc2)CCN(Cc2ccccc2)CC1	inactive: 6.71%
O=C(OC1CN2CCC1CC2)C1c2ccccc2Oc2ccccc21 (centres undefined)	inactive: -0.76%
O=C(NCC1(N2CCOCC2)CCCCC1)c1cc2ccccc2o1	inactive: 23.4%
COc1ccc(NC2CCN(CCc3ccccc3)CC2)c(OC)c1	inactive: 3.51%
CCOc1ccc(C)cc1CN(CCCl)CCCl	inactive: 3.02%
Cc1ccc(OCC(C)C)c(CN(CCCl)CCCl)c1	inactive: 12.6%
Fc1ccccc1NC1CCN(Cc2ccccc2)CC1	inactive: 16.7%
CN(C)c1ccc(C(=O)NCC2(N3CCCCC3)CCCCC2)cc1	inactive: 7.56%
CCN1CCC(Nc2cccc(F)c2)CC1	inactive: 6.93%
CC(C)(C)OC(=O)N1CCC(Nc2ccccc2)CC1	inactive: 10.6%
CCOc1ncccc1C(=O)NCC1(N2CCOCC2)CCCCC1	inactive: 9.18%
CCCOc1ccc(C)cc1CN(CCCl)CCCl	inactive: 1.54%
CCC(CO)(C(=O)OC1CN2CCC1CC2)c1ccccc1 (centres undefined)	inactive: 4.81%
COc1cc(OC)cc(C(=O)NCC2(N3CCOCC3)CCCCC2)c1	inactive: -0.61%
COc1ccc(C(=O)NCC2(N3CCOCC3)CCCCC2)cc1OC	inactive: 7.23%
O=C(OC1CN2CCC1CC2)C1c2ccccc2C=Cc2ccccc21 (centres undefined)	inactive: 5.25%
N/C(=N\O)c1c(N)no[n+]1[O-]	inactive: 9.97%
N#Cc1ccc(C(=O)NCC2(N3CCCCC3)CCCCC2)cc1	inactive: 5.26%
c1ccc(CN2CCC(Nc3ccccc3)CC2)cc1	inactive: 6.08%

Reference: PubChem BioAssay AID800 (PCMD, 2007)
